From ChEMBL document CHEMBL4373703 (J Med Chem, 2019) come the findings set out here.

Chains of the proteins cited; added tags and fusions are not shown. Lines headed by an entry give the natural chain unless they say otherwise; changes in a name come on top.
UniProt Q06187: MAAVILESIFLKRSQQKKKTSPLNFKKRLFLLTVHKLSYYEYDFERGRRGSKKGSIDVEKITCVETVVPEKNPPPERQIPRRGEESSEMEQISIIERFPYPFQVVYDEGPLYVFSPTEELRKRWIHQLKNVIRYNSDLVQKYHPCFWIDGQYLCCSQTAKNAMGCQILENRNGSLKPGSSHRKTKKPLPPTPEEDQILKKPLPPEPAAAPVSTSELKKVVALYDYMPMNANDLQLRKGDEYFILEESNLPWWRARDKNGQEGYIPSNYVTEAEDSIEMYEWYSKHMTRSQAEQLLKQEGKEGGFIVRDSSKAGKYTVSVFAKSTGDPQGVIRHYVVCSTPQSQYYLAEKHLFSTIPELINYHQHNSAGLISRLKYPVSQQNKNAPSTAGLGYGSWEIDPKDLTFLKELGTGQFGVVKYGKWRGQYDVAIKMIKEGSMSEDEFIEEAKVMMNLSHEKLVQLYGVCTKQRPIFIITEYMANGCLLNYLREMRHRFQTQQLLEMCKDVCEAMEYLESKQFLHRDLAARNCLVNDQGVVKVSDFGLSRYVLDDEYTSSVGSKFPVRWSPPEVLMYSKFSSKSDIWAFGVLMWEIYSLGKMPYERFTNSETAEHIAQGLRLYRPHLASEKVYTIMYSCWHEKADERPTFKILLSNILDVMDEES

The target in assay [1] is T1, Tyrosine-protein kinase BTK (Homo sapiens, UniProt Q06187). The assay is described as follows: Covalent inhibition of N-terminal GST-fused human BTK (2-659(end) amino acids) expressed in baculovirus expression system using FITC-AHA-EEPLYWSFPAKKK-NH2 as substrate incubated for 90 mins by microfluidic off-Chip Mobility Shift Assay.
In assay [2] the target is T1, Tyrosine-protein kinase BTK. Put plainly: Inhibition of BTK in human PBMC cells assessed as reduction in anti-IgM-stimulated CD69 expression on B cells preincubated for 60 mins followed by goat F(ab')2 anti-human IgM stimulation and measured after overnight incubation by flow cytometry. The assay is classed as cell-based.

For orientation: IC50 means the point on the concentration scale where inhibition reaches its midpoint. With `C=CS(=O)(=O)N1CCC(CNc2ncnc(N)c2-c2ccc(Oc3ccccc3)cc2)CC1`, the IC50 in assay [1] came out at 0.8 nM; in assay [2], 45 nM.
For `C=CC(=O)N[C@H]1CC[C@@H](Nc2ncnc(N)c2-c2ccc(Oc3ccccc3)cc2)CC1` the same measures were 33 nM and 660 nM.
For `C=CC(=O)N1CCC(O)(CNc2ncnc(N)c2-c2ccc(Oc3ccccc3)cc2)CC1` the same measures were 5.9 nM and 26 nM.
As for `C=CC(=O)N1CC2(CC(Nc3ncnc(N)c3-c3ccc(Oc4ccccc4)cc3)C2)C1`, the IC50 in assay [1] amounted to 2.1 nM; in assay [2] it was 66 nM.
The corresponding values for `Nc1ncnc(NCC2CCN(C(=O)CCl)CC2)c1-c1ccc(Oc2ccccc2)cc1` are 0.6 nM and 160 nM.
In the case of `C=CC(=O)N1CCC(CNc2ncnc(N)c2-c2ccc(Oc3cccc(F)c3)cc2)CC1`, the IC50 in assay [1] amounted to 9 nM.
Same read-out and setting: under `C=CC(=O)Nc1cccc(Oc2ncncc2-c2ccc(Oc3ccccc3)cc2)c1` stands 23 nM; under `C=CC(=O)N[C@@H]1CCC[C@H](Nc2ncnc(N)c2-c2ccc(Oc3ccccc3)cc2)C1` (relative stereo), 14 nM.
Still for that read-out and setting: as for `C=CC(=O)N[C@@H]1CC[C@H](Nc2ncnc(N)c2-c2ccc(Oc3ccccc3)cc2)C1` (relative stereo), the figure is 21 nM.
As for `C=CC(=O)N1CCCC(Nc2ncnc(N)c2-c2ccc(Oc3ccccc3)cc2)C1` (single isomer, unassigned), the IC50 in assay [1] amounted to 6.5 nM; in assay [2], 143 nM.
The corresponding values for `C=CC(=O)N1CCC(Nc2ncnc(N)c2-c2ccc(Oc3ccccc3)cc2)C1` (single isomer, unassigned) are 5.5 nM and 217 nM.
